Ab-95 light chain CDR variants: yeast mating affinities

Target peptide (SARS-CoV-2 spike, HR2 region): PDVDLGDISGINAS

The variants keep the heavy chain, the linker and the frameworks of Ab-95 (scFv order VH, a (GGGGS)3 linker, VL).
VH: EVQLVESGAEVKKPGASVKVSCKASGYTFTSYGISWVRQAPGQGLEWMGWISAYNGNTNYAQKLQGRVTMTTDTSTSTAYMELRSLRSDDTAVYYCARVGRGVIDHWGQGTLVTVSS
VL: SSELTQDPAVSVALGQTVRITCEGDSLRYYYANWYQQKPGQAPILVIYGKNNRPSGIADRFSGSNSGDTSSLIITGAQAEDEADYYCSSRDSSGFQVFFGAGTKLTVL

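Phage display of a naive human antibody library on the peptide gave the parent. The library (AAYL52) carries one to three amino acid substitutions per variant, with no insertions or deletions. AlphaSeq pools MATa yeast showing the antibodies with MATalpha yeast showing the peptide. Mating (16 h, 30 °C) was followed by selection of diploids and sequencing of their barcodes. A regression on co-assayed BCL2-family reference pairs converts the normalised counts of each replicate to an apparent Kd. The assay was run in three technical replicates.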

Changes read parent residue, position, new residue, counted from the first residue of the VL shown. Values are log10 of the apparent Kd in nM; lower means stronger binding. A mean of the replicates is given; it leaves out those without a signal. "nd" means that the variant was in the library but no mating with the target was seen in any replicate; the authors take this as a sign of poor binding, and no number exists. For reference, the parent read 2.31 as the reference entry and 2.25 as a member of this library.

changes | mean log10 Kd (nM) | replicates with signal
L27R/Y29L/F98H | nd | 0/3
Y30K/G49D/F98Q | 1.55 | 3/3
A32Q/G94C/Q96N | 3.77 | 2/3
D25E/Y31M/S55N | 2.18 | 2/3
N33I/N52K/S89R | 3.80 | 3/3
S26W/S89Q | 3.23 | 1/3
Y30Q/R53A/Q96K | 0.75 | 3/3
Y31C/N52W/S92W | 2.99 | 3/3
N51C/S55P/F95P | 3.33 | 3/3
D25H/A32M/S88P | 3.65 | 1/3
S26A/P54F/R90W | 4.00 | 3/3
Y31R/F95I/V97H | 4.14 | 3/3
K50P/S93R/F95N | 2.33 | 3/3
P54Y/S55E/F95C | 4.17 | 2/3
S26T/R53I/F95M | 3.13 | 1/3
R28V/Y29L/P54F | 4.54 | 2/3
R28W/S88A/Q96M | 2.64 | 3/3
Y31R/N33I/S93C | 5.16 | 1/3
G24P/R28W/Q96R | 4.23 | 2/3
Y31M/S89Y/V97K | 0.75 | 3/3
D91S/F95C/F98T | 3.67 | 2/3
Y31N/P54Q/G94F | 3.93 | 3/3
E23W/D25H/N33Y | 3.68 | 3/3
Y29I/Y30M | 2.40 | 3/3
D25R/S89L/S93E | 3.51 | 3/3
G49C/S93D/F95A | nd | 0/3
G49Y/R53H/S55M | nd | 0/3
K50H/S88W/G94I | 1.86 | 3/3
A32H/S89R/Q96F | 4.71 | 2/3
K50Y/Q96T/V97W | nd | 0/3
Y29V/N52L/S93K | 3.53 | 2/3
E23T/V97G | 2.79 | 1/3
N51W/S93D/F95D | 3.79 | 3/3
R53I/P54I/S92E | 3.12 | 2/3
R28E/S89F | 3.21 | 3/3
D25V/R28V/Q96F | 4.18 | 3/3
L27V/Y30A/Q96S | 2.18 | 3/3
S26D/R28E/D91K | 3.92 | 2/3
R53Q/S55Y/D91P | 4.36 | 1/3
E23Y/A32Q/N51Q | 5.78 | 1/3
L27N/N51M/R53K | 4.12 | 1/3
Y29T/R53T/P54Y | 3.62 | 3/3
E23T/Y30Q/N51G | 0.20 | 3/3
K50C/S89D/G94H | 3.54 | 1/3
D25S/R28N/G49F | nd | 0/3
L27H/K50T/S93I | 3.58 | 1/3

The opening 7 entries, copied out:

{"changes": "L27R/Y29L/F98H", "mean log10 Kd (nM)": "nd", "replicates with signal": "0/3"}
{"changes": "Y30K/G49D/F98Q", "mean log10 Kd (nM)": "1.55", "replicates with signal": "3/3"}
{"changes": "A32Q/G94C/Q96N", "mean log10 Kd (nM)": "3.77", "replicates with signal": "2/3"}
{"changes": "D25E/Y31M/S55N", "mean log10 Kd (nM)": "2.18", "replicates with signal": "2/3"}
{"changes": "N33I/N52K/S89R", "mean log10 Kd (nM)": "3.80", "replicates with signal": "3/3"}
{"changes": "S26W/S89Q", "mean log10 Kd (nM)": "3.23", "replicates with signal": "1/3"}
{"changes": "Y30Q/R53A/Q96K", "mean log10 Kd (nM)": "0.75", "replicates with signal": "3/3"}

Empty control strains, which show no peptide, gave a signal in 28% of pairings with library AAYL52; the median was 3.91 and 95% of these signals were weaker than 2.90. No background was subtracted.

Source: Engelhart et al. 2022 (doi:10.1038/s41597-022-01779-4), MIT Lincoln Laboratory and A-Alpha Bio; data file from the FLAb repository.